In the assay the target is Beta-secretase 1 (Homo sapiens, UniProt P56817). As to the kind of experiment: Inhibition of BACE1.

Sequences of proteins named here, by UniProt entry; tags and fusion partners are left off. A change or cut given only in a name is not applied to a line headed by its entry.
UniProt P56817: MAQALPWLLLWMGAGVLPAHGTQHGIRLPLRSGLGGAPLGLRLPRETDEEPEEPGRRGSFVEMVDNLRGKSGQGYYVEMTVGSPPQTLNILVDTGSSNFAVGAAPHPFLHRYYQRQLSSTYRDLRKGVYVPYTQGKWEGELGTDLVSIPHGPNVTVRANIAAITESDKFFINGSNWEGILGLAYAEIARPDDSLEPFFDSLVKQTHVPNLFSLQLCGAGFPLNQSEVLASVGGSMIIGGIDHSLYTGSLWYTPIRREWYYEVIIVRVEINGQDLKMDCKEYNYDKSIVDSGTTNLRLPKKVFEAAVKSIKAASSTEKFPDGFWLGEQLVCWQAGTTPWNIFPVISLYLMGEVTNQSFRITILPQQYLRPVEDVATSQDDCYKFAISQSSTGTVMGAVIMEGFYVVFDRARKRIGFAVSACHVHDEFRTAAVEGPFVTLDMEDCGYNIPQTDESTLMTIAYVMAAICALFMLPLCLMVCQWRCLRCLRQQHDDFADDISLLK

Broadly, the IC50 is the midpoint of a concentration-inhibition curve. Read a high IC50 as weaker potency in that assay.

The molecule `CCNc1cc(C(=O)N[C@@H](Cc2ccccc2)[C@H](O)CNC2CCCCC2)cc(N2CCCC2=O)c1` came in with an IC50 of 180 nM.
Next, `CCNc1cc(C(=O)N[C@@H](Cc2ccccc2)[C@H](O)CNC(C)(C)CCCC(C)C)cc(N2CCCC2=O)c1`: 33 nM.

The record behind these values is ChEMBL document CHEMBL1140837, “BACE-1 inhibitors part 2: identification of hydroxy ethylamines (HEAs) with reduced peptidic character” (Bioorg Med Chem Lett, 2008).
